{"sequences": {"note": "The chains behind the UniProt entries cited, without tags or fusion partners. Where a name states a change or a piece, a line headed by the entry shows the natural chain unless it says otherwise.", "UniProt Q00961": "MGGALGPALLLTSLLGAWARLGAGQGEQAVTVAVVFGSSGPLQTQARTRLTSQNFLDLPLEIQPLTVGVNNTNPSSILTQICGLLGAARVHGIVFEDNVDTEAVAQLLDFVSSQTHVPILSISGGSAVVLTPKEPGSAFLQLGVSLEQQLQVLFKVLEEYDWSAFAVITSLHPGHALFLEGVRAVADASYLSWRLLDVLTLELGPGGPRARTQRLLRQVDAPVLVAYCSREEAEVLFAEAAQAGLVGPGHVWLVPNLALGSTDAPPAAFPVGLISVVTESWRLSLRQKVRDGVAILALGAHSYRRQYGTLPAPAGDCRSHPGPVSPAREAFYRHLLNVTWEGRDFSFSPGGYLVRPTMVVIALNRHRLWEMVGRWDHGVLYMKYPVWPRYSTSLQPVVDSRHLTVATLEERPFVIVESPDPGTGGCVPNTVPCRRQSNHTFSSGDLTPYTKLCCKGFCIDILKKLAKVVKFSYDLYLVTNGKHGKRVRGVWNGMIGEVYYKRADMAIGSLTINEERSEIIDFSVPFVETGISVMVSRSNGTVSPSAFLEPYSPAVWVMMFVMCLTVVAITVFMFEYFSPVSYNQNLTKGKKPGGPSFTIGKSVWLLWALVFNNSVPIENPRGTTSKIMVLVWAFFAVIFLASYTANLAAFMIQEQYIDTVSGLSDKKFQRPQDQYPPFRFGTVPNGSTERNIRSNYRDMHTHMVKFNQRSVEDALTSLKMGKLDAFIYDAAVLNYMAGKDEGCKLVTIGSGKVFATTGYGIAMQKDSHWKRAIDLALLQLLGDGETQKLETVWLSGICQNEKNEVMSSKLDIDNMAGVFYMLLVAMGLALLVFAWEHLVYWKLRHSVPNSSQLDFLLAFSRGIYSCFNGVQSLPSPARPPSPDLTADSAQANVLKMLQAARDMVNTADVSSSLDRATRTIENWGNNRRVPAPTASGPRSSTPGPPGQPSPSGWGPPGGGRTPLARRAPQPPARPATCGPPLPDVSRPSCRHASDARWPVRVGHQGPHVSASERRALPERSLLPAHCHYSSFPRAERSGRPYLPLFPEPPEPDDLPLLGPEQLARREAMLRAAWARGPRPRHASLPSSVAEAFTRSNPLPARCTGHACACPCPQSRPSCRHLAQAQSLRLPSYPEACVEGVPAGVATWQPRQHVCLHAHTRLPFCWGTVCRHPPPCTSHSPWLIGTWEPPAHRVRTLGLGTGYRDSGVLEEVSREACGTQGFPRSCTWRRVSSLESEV"}, "source": "ChEMBL document CHEMBL1132713", "about": "“Emerging molecular approaches to pain therapy” (J Med Chem, 1999)", "target": "Glutamate receptor ionotropic, NMDA 2C (Rattus norvegicus, UniProt Q00961)", "experiment": "Compound with the N-methyl-D-aspartate glutamate receptor blocking activity", "data": [{"compound": "CC12CC3CC(C)(C1)CC(N)(C3)C2", "note": "[MEMANTINE]", "values": [{"measurement": "Ki", "value": 700, "unit": "nM"}]}]}
